Laboratory results from patent publication US20230293519A1, “INTEGRIN INHIBITORS AND USES THEREOF IN COMBINATION WITH OTHER AGENTS” (Pliant Therapeutics, Inc., priority 2021, published 2023).

By UniProt entry, the sequences of proteins in these tests, tags left out. Residues count along the entry.
UniProt P06756, 31-889 limits assumed: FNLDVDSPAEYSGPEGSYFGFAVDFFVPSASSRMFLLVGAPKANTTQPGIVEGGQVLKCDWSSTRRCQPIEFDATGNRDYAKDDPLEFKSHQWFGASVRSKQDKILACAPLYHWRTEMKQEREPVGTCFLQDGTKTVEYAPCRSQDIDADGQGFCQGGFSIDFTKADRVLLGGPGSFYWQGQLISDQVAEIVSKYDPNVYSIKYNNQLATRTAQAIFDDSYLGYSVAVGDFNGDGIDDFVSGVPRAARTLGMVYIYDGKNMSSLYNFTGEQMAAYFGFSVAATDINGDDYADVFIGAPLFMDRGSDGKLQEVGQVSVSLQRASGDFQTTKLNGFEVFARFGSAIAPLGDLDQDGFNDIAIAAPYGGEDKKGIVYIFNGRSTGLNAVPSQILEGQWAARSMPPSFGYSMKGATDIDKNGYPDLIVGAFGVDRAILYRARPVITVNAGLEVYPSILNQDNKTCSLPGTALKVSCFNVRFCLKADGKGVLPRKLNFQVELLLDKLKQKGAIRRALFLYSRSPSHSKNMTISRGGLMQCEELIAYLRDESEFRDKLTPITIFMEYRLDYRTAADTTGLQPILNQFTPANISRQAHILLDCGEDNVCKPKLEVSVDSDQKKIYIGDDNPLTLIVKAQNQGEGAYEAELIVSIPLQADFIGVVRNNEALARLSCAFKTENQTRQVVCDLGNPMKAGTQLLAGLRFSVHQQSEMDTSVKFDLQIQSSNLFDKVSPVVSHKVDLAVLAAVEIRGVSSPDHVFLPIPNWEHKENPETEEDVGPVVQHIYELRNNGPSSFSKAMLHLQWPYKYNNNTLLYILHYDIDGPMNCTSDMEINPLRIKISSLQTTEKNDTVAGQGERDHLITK
UniProt P06756, 890-992 partner limits assumed: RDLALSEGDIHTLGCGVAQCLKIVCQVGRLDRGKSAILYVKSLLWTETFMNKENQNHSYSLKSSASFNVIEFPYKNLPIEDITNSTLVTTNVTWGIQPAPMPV
UniProt P18564, 22-707 limits assumed: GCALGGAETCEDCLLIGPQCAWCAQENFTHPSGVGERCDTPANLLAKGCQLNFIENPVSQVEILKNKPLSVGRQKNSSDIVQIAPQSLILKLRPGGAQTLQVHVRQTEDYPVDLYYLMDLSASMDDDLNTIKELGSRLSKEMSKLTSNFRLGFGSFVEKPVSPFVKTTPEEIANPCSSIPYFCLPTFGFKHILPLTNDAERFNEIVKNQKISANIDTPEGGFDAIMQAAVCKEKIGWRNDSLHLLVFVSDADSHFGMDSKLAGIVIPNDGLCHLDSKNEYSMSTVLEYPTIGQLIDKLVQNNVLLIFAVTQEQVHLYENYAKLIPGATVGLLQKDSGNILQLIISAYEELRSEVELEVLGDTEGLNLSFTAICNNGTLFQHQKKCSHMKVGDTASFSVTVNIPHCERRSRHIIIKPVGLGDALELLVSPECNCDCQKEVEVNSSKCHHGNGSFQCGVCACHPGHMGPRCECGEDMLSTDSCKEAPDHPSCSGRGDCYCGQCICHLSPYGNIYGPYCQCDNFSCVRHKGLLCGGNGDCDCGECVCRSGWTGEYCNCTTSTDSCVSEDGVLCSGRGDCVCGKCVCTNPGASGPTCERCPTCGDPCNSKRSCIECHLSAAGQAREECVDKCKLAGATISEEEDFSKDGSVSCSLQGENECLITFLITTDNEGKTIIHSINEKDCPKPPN

These compounds were tested against recombinant human integrin αvβ6 (Homo sapiens (Human), UniProt P06756+P18564) (assay: Solid phase integrin αvβ6 binding assay). Conditions: read-out: αvβ6 Inhibition IC50 (nM) - range; IC50 presented in four ranges.
Experimental: (§1) Microplates were coated with recombinant human integrin αvβ6 (2 µg/mL) in PBS (100 µL/well 25° C., overnight). The coating solution was removed, washed with wash buffer (0.05% Tween 20; 0.5 mM MnCl2; in 1x TBS). The plate was blocked with 200 µL/well of Block Buffer (1% BSA; 5% sucrose; 0.5 mM MnCl2; in 1x TBS) at 37° C. for 2 h. Dilutions of testing compounds and recombinant TGFβ1 LAP (0.67 µg/mL) in binding buffer (0.05% BSA; 2.5% sucrose; 0.5 mM MnCl2; in 1x TBS) were added. The plate was incubated for 2 hours at 25° C., washed, and incubated for 1 hour with Biotin-Anti-hLAP. Bound antibody was detected by peroxidase-conjugated streptavidin. The IC50 values for testing compounds were calculated by a four-parameter logistic regression.
The compounds tested were compound samples prepared according to procedures described in the Synthetic Examples section, with the stereochemical purity as indicated in the Examples. The IC50 values in Tables B-1 and B-2 are presented in four ranges: below 50 nM; from 50 nM to 250 nM; from above 250 nM to 1000 nM; and above 1000 nM.
as §1, with “A third series of exemplary compounds was selected for testing in the solid phase integrin αvβ6 binding assay. The compounds tested were compound samples prepared according to procedures described in the Synthetic Examples section, with the stereochemical purity as indicated in the Examples. As in Example B1, microplates” for “Microplates”

SMILES | IC50
CO[C@H](C)CN(CCCCc1ccc2c(n1)NCCC2)CC[C@H](Nc1ncc(Br)cn1)C(=O)O [compound 86] | < 50 nM
CO[C@H](C)CN(CCCCc1ccc2c(n1)NCCC2)CC[C@H](Nc1ncc(C(F)(F)F)cn1)C(=O)O [compound 85] | < 50 nM
COCCN(CCCCc1ccc2c(n1)NCCC2)CCC(Nc1ncnc2cc(C(F)(F)F)ccc12)C(=O)O (centres unmarked) | 50 to 250 nM
CO[C@H](C)CN(CCCCc1ccc2c(n1)NCCC2)CC[C@H](Nc1ncc(C#N)cn1)C(=O)O [compound 84] | < 50 nM
CO[C@H](C)CN(CCCCc1ccc2c(n1)NCCC2)CC[C@H](Nc1ccncn1)C(=O)O [compound 127] | < 50 nM
CO[C@H](C)CN(CCCCc1ccc2c(n1)NCCC2)CC[C@H](Nc1cc(-c2ccccc2)ncn1)C(=O)O [compound 128] | < 50 nM
CO[C@H](C)CN(CCCCc1ccc2c(n1)NCCC2)CC[C@H](Nc1ccnc(C(F)(F)F)n1)C(=O)O [compound 87] | < 50 nM
COCCN(CCCCc1ccc2c(n1)NCCC2)CCC(Nc1ncnc2cccnc12)C(=O)O (centres unmarked) | < 50 nM
